Source: US8852552B2, “Agents and methods for visualizing analytes” (priority 2010, dated 2014)

Details: tritiated complex with peptide FLNCCPGCCMEP, several weeks after isolation

2,5-di-(1,3,2-Dithiarsolan-2yl)-9(4-fluorophenyl)-6-[^3H3]methoxy-3-fluorone [6-[^3H3CO]-PSMXB-6]
stability of isolated radiolabelled complex on reanalysis: adequate stability
